Values quoted from earlier work in patent US20150274787A1, “METHOD FOR RECOMBINANT PRODUCTION OF LABYRINTHOPEPTINS AND FUNCTIONAL DERIVATIVES THEREOF” (priority 2011, published 2015).

Details: earlier biological characterization; cited from earlier work

## CC(C)C[C@@H]1NC(=O)[C@]23CSC[C@H](NC(=O)[C@H](C)NC(=O)[C@H](Cc4ccccc4)NC1=O)C(=O)N[C@H](C(=O)O)CSSC[C@H](NC(=O)[C@@H]1CSC[C@]4(C[C@H](N)C(=O)N[C@@H](CC(=O)O)C(=O)N[C@@H](Cc5c[nH]c6ccccc56)C(=O)N4)C(=O)N[C@@H](CC(C)C)C(=O)N[C@@H](Cc4c[nH]c5ccccc45)C(=O)N[C@@H](CCC(=O)O)C(=O)N1)C(=O)N[C@@H](C2)C(=O)N[C@@H]([C@@H](C)O)C(=O)NCC(=O)N3 [LabA2]
  efficacy in an in vivo neuropathic pain model: revealed an efficacy
